Experimental data published in ChEMBL document CHEMBL1146123, “Kinesin spindle protein (KSP) inhibitors. Part 2: the design, synthesis, and characterization of 2,4-diaryl-2,5-dihydropyrrole inhibitors of the mitotic kinesin KSP” (Bioorg Med Chem Lett, 2006).

Target: T1, Kinesin-like protein KIF11 (Homo sapiens, UniProt P52732)
T1 sequence (P52732 whole entry): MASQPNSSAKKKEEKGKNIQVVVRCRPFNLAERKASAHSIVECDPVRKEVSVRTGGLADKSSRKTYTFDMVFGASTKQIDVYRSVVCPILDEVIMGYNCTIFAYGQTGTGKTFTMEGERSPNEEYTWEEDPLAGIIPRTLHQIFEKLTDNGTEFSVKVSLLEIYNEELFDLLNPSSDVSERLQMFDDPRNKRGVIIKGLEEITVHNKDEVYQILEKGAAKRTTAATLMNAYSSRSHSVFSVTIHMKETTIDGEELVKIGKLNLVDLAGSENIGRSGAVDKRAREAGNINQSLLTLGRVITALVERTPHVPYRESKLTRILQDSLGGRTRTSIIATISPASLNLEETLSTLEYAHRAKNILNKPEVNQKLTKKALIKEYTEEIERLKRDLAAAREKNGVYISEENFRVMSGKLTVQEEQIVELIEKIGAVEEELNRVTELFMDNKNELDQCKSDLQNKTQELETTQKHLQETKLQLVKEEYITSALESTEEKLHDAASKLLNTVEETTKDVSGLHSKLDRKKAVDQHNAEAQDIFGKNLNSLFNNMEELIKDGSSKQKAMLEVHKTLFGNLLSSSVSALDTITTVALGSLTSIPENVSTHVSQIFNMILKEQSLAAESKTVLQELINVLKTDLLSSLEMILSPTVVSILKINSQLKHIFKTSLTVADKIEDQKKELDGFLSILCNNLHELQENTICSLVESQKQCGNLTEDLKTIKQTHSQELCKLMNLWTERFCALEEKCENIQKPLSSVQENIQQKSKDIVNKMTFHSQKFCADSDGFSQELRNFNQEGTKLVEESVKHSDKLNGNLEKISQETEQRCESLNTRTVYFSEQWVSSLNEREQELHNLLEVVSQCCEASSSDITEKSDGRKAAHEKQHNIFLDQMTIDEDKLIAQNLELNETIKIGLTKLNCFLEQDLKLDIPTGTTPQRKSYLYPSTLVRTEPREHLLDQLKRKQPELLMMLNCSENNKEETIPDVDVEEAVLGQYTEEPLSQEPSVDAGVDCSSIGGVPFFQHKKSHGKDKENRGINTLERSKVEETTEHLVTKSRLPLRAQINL
Assay: Inhibition of KSP

Compound | IC50 [nM]
N[C@H](C(=O)N1CC(c2cc(F)ccc2F)=C[C@H]1c1ccccc1)C1CC1 | 2
CN(C(=O)N1CC(c2cc(F)ccc2F)=C[C@H]1c1ccccc1)C1CCNCC1 | 2.6
